Assay results published in US10000450B2, “N,N-substituted 3-aminopyrrolidine compounds useful as monoamines reuptake inhibitors” (OTSUKA PHARMACEUTICAL CO., LTD., priority 2005, dated 2018).

Amino acid sequences for entries named in this document (tags omitted). Residues count along the entry.
UniProt Q63380, 1-617: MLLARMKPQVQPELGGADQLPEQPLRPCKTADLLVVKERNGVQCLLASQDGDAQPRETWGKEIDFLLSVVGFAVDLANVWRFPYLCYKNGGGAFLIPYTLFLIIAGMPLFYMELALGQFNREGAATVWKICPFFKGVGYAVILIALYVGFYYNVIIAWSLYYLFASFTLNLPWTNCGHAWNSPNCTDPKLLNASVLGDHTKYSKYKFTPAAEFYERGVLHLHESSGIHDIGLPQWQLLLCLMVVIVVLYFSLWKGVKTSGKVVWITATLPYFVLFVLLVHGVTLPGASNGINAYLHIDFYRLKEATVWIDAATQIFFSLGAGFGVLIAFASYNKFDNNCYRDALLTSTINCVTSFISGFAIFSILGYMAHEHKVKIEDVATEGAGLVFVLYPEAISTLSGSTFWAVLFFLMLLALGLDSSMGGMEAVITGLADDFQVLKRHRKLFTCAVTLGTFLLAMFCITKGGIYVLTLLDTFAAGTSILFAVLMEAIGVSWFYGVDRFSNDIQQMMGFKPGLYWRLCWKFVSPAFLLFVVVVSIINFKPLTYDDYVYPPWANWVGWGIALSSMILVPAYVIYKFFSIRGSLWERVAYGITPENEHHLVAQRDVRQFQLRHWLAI

Biological target: Norepinephrine (NE) uptake into rat brain synaptosome (hippocampus) (Rattus norvegicus, UniProt Q63380)
Test: Inhibitory activity on norepinephrine (NE) uptake into rat brain synaptosome
Details: read-out: 50% inhibitory concentration, tritium-labeled NE 12 nM uptake, 10 min at 37° C., tested form: HCl
Experimental: Pharmacological Test 2 Evaluation of Inhibitory Activity of Test Compound on Norepinephrine (NE) Uptake into Rat Brain Synaptosome
Male Wistar rats were decapitated and the brains were removed and the hippocampi were dissected. The separated hippocampi were homogenized in 20 volumes as weight of 0.32 M sucrose solution by a Potter-type homogenizer. The homogenate was centrifuged at 1000 g at 4° C. for 10 minutes, and the supernatant was then centrifuged at 20000 g at 4° C. for 20 minutes. The pellet was resuspended in incubation buffer (20 mM HEPES buffer (pH 7.4)) containing 10 mM glucose, 145 mM sodium chloride, 4.5 mM potassium chloride, 1.2 mM magnesium chloride, and 1.5 mM calcium chloride) and used as crude synaptosome fraction. […]
Solvent, unlabeled NE, and serial diluted test compounds were added to each well, and synaptosome fraction of 1/10 volume of the final volume were added. […] After washing the filter with cold physiological saline and drying up, Microscint-0 (Perkin-Elmer) was added, and remained radioactivity on the filter was measured.
The total uptake activity with only solvent was determined as 100%, and the nonspecific uptake activity with unlabeled NE (final concentration of 10 μM) was determined as 0%. The 50% inhibitory concentrations were calculated based on the concentrations of the test compounds and their inhibitory activities.

IC50: 0.5 nM
Compound: Fc1ccc(N(CC2CCOCC2)[C@H]2CCNC2)cc1Cl
